Sequences of proteins named here, by UniProt entry; tags and fusion partners are left off. Residues count along the entry.
UniProt O43683, whole entry: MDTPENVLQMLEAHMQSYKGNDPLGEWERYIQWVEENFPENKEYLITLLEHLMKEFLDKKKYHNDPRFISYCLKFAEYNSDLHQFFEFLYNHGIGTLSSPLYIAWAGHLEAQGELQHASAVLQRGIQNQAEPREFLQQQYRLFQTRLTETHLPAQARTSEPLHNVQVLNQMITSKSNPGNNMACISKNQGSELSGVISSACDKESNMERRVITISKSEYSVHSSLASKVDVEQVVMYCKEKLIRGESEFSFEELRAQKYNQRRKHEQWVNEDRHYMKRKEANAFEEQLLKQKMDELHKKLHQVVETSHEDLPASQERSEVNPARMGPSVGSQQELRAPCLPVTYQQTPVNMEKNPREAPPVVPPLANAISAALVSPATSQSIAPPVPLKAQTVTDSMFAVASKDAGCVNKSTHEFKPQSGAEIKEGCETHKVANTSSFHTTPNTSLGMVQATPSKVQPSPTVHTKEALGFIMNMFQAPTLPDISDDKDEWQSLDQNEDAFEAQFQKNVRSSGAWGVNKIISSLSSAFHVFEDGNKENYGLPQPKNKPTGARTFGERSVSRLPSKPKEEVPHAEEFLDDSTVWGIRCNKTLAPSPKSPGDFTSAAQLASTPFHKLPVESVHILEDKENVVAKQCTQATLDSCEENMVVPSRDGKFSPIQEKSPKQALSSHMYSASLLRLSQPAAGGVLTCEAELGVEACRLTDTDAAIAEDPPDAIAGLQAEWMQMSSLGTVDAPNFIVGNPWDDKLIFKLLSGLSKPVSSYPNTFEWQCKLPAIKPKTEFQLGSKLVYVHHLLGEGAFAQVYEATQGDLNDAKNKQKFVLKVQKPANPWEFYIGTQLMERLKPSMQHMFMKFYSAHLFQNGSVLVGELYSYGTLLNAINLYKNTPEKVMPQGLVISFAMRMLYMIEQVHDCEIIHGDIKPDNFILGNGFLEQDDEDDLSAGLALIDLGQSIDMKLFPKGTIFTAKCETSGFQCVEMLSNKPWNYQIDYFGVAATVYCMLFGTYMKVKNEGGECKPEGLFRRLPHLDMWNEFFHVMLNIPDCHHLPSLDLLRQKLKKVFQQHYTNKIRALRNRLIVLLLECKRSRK
UniProt O43683, 704-1085 limits assumed: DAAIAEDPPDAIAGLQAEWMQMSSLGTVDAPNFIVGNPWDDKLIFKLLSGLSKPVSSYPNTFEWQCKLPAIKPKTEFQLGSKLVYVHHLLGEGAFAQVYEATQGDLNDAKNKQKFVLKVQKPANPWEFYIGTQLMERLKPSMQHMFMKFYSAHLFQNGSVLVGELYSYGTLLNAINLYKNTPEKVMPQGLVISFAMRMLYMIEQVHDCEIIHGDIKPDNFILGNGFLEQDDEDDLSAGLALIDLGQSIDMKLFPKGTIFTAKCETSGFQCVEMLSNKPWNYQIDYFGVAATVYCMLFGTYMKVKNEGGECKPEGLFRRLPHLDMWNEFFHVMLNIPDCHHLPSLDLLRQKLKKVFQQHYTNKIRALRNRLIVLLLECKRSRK

In patent US20170275270A1, “BENZYL SUBSTITUTED INDAZOLES” (Bayer Pharma Aktiengesellschaft, priority 2014, published 2017):

Columns and labels:
[1] = tested on: HeLa; experiment: Proliferation assay (HeLa cell line); conditions: read-out: Biological Assay 2: Proliferation assay (HeLa cell line) median IC50, 4 days, crystal violet;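 further: crystal violet staining of cell number, scaled between a plate stained before dosing (0%) and cells left untreated (100%), compounds tested at 0.001-10 µM, IC50 via 4-parameter fit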
[2] = target: Bub1 (Homo sapiens, UniProt O43683); experiment: Formation-Assay: phosphorylation status of histone 2A by inhibition of kinase activity of Bub1; format: cell-based; conditions: read-out: Biological Assay 4.1: H2A Formation IC50; co-treatment with Nocodazole 1 μg/ml, 16 h
[3] = target: catalytic domain of human Bub1 (amino acids 704-1085) (Homo sapiens, UniProt O43683); experiment: Bub1 kinase assay (TR-FRET); format: biochemical; conditions: read-out: Biological Assay 1: Bub1 kinase assay median IC50, 10 μM ATP
[4] = tested on: HeLa human cervical tumor cells; experiment: Proliferation assay (HeLa+Paclitaxel); conditions: read-out: Biological Assay 3: HeLa + Paclitaxel IC50, 3 nM paclitaxel, crystal violet;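 further: compounds at 0.001-10 µM added 4 h after paclitaxel, 92 h exposure, absorbance normalized to zero-point plate (0%) and untreated cells (100%), IC50 from 4-parameter fit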

CCOc1cc(F)c(Cn2nc(-c3ncc(CCC[S@@+](C)[O-])c(Nc4ccncc4)n3)c3ccccc32)c(F)c1
IC50 [1]: 7300 nM | IC50 [2]: 290 nM | IC50 [3]: 5.6 nM | IC50 [4]: 150 nM
